Assay [1] has as its target T1, Plx2A (Paenibacillus larvae, UniProt M9V3B7). Description: biochemical.
The target of assay [2] is T1, Plx2A. Description: biochemical. The assay is classed as binding.

Molecules are shown by their SMILES.

In the case of `O=c1cc(-c2ccccc2)oc2cc(O)c(O)c(O)c12` [Baicalein, 5,6,7-trihydroxy-2-phenyl-4H-chromen-4-one], the IC50 (as a rule, the concentration that inhibits the measured activity by half) in assay [1] is 10.7 ± 0.7 µM. In assay [2], binding was characterised by a dissociation constant (Kd) of 13.6 ± 1.5 µM.

The compound `COc1ccc(-c2cc(=O)c3c(O)cc(O)cc3o2)cc1` [Acacetin, 5,7-dihydroxy-2-(4-methoxyphenyl)-4H-chromen-4-one] came in with an IC50 in assay [1] of 28 ± 2.3 µM.

The record behind these values is article PMC8704661, “A Structural Approach to Anti-Virulence: A Discovery Pipeline” (Microorganisms, 2021).
